JMJD2E inh – inhibitors of human JMJD2E histone demethylase | AID 2147 | JMJD2E catalytic domain, FDH-coupled NADH fluorescence (FDH is formaldehyde dehydrogenase) | hit rate 1.6% among 230,000 | Potency, µM (highest dose often 57.1 µM), actives largely listed as inhibitors | B2RXH2; active = well fitted inhibition curve with a large enough effect, not every such curve was filed as active; inconclusive = small, poorly fitted or top-dose-only effect, or another doubt; inactive = no such curve, though single readings can be large or run the other way; note: nearly all actives have a fitted effect of over 50% in size
LMNA splice mod – changes lamin A minigene splicing in HeLa cells | hit rate 0.01% among 200,000 | HeLa LMNA splicing GFP/RFP minigene ratio, 48 h | AID 1487 | Potency, µM (titrated, usually from 46.1 µM), hits mostly inhibitors; active = well fitted inhibition curve with a large enough effect in the signal ratio, with a control signal flat, not every such curve was filed as active; inconclusive = small, poorly fitted or top-dose-only effect, or effect the other way, or a change in a side signal; the % refers to the signal ratio
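S3 HeLa stable clones carrying a lamin A-EGFP splicing minigene plus DsRed2 were seeded at 600 cells/well in Opti-MEM with 2% FBS, pin-dosed and incubated 48 h at 37°C. Acumen cytometry (488 nm) gave the GFP/RFP total-intensity ratio.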
miR-21 reporter – miR-21 reporter, rising signal. HeLa miR-21 FLuc reporter, luciferase, 48 h. Potency, µM (highest dose often 38.3 µM). 340,000 tested, under 10 active. AID 2288; active = well fitted rising curve with a large enough effect; inconclusive = small, poorly fitted or top-dose-only effect; inactive = no such curve, though single readings can be large or run the other way;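 further: miR-21 action dims this reporter so a rising signal means less miR-21 action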
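HeLa miR-21-FLuc reporter line, endogenous miR-21; 2000 cells/well in DMEM/10% FBS; compound titration up to ~40uM final, 48 h, 37 degree Celsius; luciferase detection reagent, 15 min lysis, CCD luminescence.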
ALDH1A1 block – inhibitors of human aldehyde dehydrogenase 1A1 | P00352 | Purified ALDH1A1, NADH fluorescence, propionaldehyde substrate | Potency, µM (highest dose often 75.3 µM), usual class: inhibitors | hit rate 7.3% among 220,000 | AID 1030; active = well fitted inhibition curve with a large enough effect, not every such curve was filed as active; inconclusive = small, poorly fitted or top-dose-only effect, or another doubt; inactive = no such curve, though single readings can be large or run the other way
G9a block – inhibitors of human histone lysine methyltransferase G9a | Q96KQ7 | G9a H3K9 monomethylation, AlphaScreen, 2 h | Potency, µM (doses to about 102 µM), most hits filed as inhibitors | hit rate 8.8% among 350,000; note: nearly all actives have a fitted effect of over 75% in size
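Step 1: enzyme (final 20 nM) with compound, 15 min RT. Step 2: substrate peptide 500 nM and SAM 20 uM, 2 h RT. Step 3: anti-H3K9me1 antibody and AlphaScreen beads, 10 min, then plate read.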
Sfp inh – Sfp phosphopantetheinyl transferase inhibition; AID 1490; Biochemical Sfp PPTase activity, qHTS; hit rate 3.5% among 310,000; Q9F4F7; Potency, µM, actives largely listed as inhibitors;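 note: the enzyme is Sfp with the accession as filed and its product quenches rhodamine fluorescence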
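Fluorescence-quenching assay: 15 nM Sfp-PPTase preincubated 15 min at room temperature with compound, then 5 uM rhodamine-CoA and 12.5 uM BHQ-2-labelled YbbR peptide added. Fluorescence (ex 525/em 598 nm) read at start and after 30 min; difference gives rate.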
Numbers stand for hits; [ ] = remark or other dose. An excerpt weighted towards active compounds, which were near 13% of everything screened. Unless noted, calls come from the whole dose curve; as a rule, active = well fitted curve in the direction sought with a large enough effect; inconclusive = small, poorly fitted or top-dose-only effect, or another doubt; inactive = no such curve, though single readings can be large; an effect the other way counts as inactive or inconclusive.

What do the screens show for `O=C(COC(=O)C1CCC1)NCc1ccc(Cl)cc1Cl`?
G9a block: inactive[0.501 µM]

Results for CN1CCN(CC(=O)Nc2cccc(S(=O)(=O)N(C)c3ccccc3)c2)CC1 ?
G9a block: inactive

How did COc1ccc(OC)c(CNC(=O)c2cc(S(=O)(=O)N3CCC(C)CC3)cn2C)c1 do in these assays?
LMNA splice mod: inactive; miR-21 reporter: inactive; G9a block: inactive

How did O=C(CN1CCN(CC(=O)c2ccc(F)cc2)CC1)Nc1ccccc1Cl do in these assays?
JMJD2E inh: inactive; LMNA splice mod: inactive; miR-21 reporter: inactive; ALDH1A1 block: 2.2µM; G9a block: 7.1µM; Sfp inh: inactive

Results for O=C(NCCCN1CCc2ccccc2C1)C1CCN(c2nnc(-n3cccc3)s2)CC1 ?
JMJD2E inh: inactive; LMNA splice mod: inconclusive; miR-21 reporter: inactive; ALDH1A1 block: inactive; G9a block: 50µM; Sfp inh: inactive

Results for CCN(CC)c1ccc(NC(=O)C2CCN(c3nnc(-n4cccc4)s3)CC2)c(C)c1 ?
LMNA splice mod: inactive; miR-21 reporter: inactive; G9a block: 4µM

How did N#CC1=C(N)OC2=C(C(=O)CCC2)C12CCC1(CC2)OCCO1 do in these assays?
JMJD2E inh: inconclusive; LMNA splice mod: inactive; miR-21 reporter: inactive; ALDH1A1 block: inconclusive; G9a block: 79µM; Sfp inh: inactive

What do the screens show for `Cc1cc(C)cc(OCC(=O)NCC2(N3CCOCC3)CCCCC2)c1`?
LMNA splice mod: inconclusive; miR-21 reporter: inconclusive; G9a block: inactive

Results for Cc1cccc(CNc2cc(-c3ccccc3C)ncn2)c1 ?
JMJD2E inh: inactive; LMNA splice mod: inactive; ALDH1A1 block: inconclusive; Sfp inh: inactive

What do the screens show for `Cc1cccc(NC(=O)CSc2nnc(NC(=O)CN3CCCCC3)s2)c1`?
JMJD2E inh: inactive; LMNA splice mod: inactive; miR-21 reporter: inactive; ALDH1A1 block: inactive; G9a block: inactive; Sfp inh: inactive

How did CSc1nnc(NC(=O)c2ccc(S(=O)(=O)N3CCOCC3)cc2)s1 do in these assays?
miR-21 reporter: inactive; G9a block: 10µM; Sfp inh: inactive

What do the screens show for `NC(=O)CSc1nnc(NC(=O)c2ccc(S(=O)(=O)N3CCOCC3)cc2)s1`?
miR-21 reporter: inactive; Sfp inh: inactive

What do the screens show for `Cc1cccc(Nc2nnc(SCC(=O)Nc3cccc(S(=O)(=O)N4CCCCC4)c3)s2)c1`?
JMJD2E inh: inactive; LMNA splice mod: inconclusive; miR-21 reporter: inactive; ALDH1A1 block: inconclusive; G9a block: 3.5µM; Sfp inh: inactive

How did Cc1ccc(Nc2nnc(SCC(=O)Nc3ccc(S(=O)(=O)N4CCOCC4)cc3)s2)cc1 do in these assays?
JMJD2E inh: inactive; LMNA splice mod: inactive; miR-21 reporter: inactive; ALDH1A1 block: inactive; G9a block: inconclusive; Sfp inh: inactive

How did O=C(CSc1nnc(NC(=O)C2CCC2)s1)Nc1ccc(N2CCOCC2)cc1 do in these assays?
JMJD2E inh: inactive; LMNA splice mod: inactive; miR-21 reporter: inactive; ALDH1A1 block: inconclusive; G9a block: 50µM; Sfp inh: inactive

How did O=C(CSc1nnc(Nc2ccccc2)s1)Nc1ccc(S(=O)(=O)N2CCOCC2)cc1 do in these assays?
JMJD2E inh: inactive; LMNA splice mod: inconclusive; miR-21 reporter: inactive; ALDH1A1 block: inactive; G9a block: 8.9µM; Sfp inh: inactive

Results for CCc1ccc(Nc2nnc(SCC(=O)Nc3cccc(S(=O)(=O)NC4=NCCCCC4)c3)s2)cc1 ?
JMJD2E inh: inactive; LMNA splice mod: inconclusive; miR-21 reporter: inactive; ALDH1A1 block: 18µM; G9a block: 6.3µM; Sfp inh: inactive

What do the screens show for `O=C(Nc1nnc(C2=COCCO2)o1)c1ccc(S(=O)(=O)N2CCOCC2)cc1`?
JMJD2E inh: inactive; LMNA splice mod: inactive[9.22 µM]; miR-21 reporter: inactive; ALDH1A1 block: inconclusive; G9a block: 50µM; Sfp inh: inactive

How did Cc1c(C(=O)NCCSCc2ccco2)cccc1[N+](=O)[O-] do in these assays?
JMJD2E inh: inactive; LMNA splice mod: inactive; miR-21 reporter: inactive; ALDH1A1 block: inactive; G9a block: inactive; Sfp inh: inactive

Results for Cc1c(C(=O)NCCSCc2ccccc2)cccc1[N+](=O)[O-] ?
JMJD2E inh: inactive; LMNA splice mod: inactive; miR-21 reporter: inactive; ALDH1A1 block: 3.2µM; Sfp inh: inactive

What do the screens show for `COc1cc(NC(=O)Cn2c(=O)n(CC3CCC(C(=O)NCCc4ccccc4)CC3)c(=O)c3ccccc32)cc(OC)c1` (stereo not drawn)?
miR-21 reporter: inactive; G9a block: inactive

What do the screens show for `O=[N+]([O-])c1ccc(N2CCN(Cc3ccc(Br)o3)CC2)cc1`?
miR-21 reporter: inactive; G9a block: inconclusive; Sfp inh: inactive

What do the screens show for `O=[N+]([O-])c1ccc(CN2CCN(c3ncccn3)CC2)cc1`?
miR-21 reporter: inactive; G9a block: 32µM; Sfp inh: inactive

What do the screens show for `O=[N+]([O-])c1cccc(CN2CCN(c3ncccn3)CC2)c1`?
miR-21 reporter: inactive; G9a block: 11µM; Sfp inh: inactive

How did O=[N+]([O-])c1ccc(N2CCN(Cc3ccncc3)CC2)cc1 do in these assays?
miR-21 reporter: inactive; G9a block: 32µM; Sfp inh: inactive

Results for O=[N+]([O-])c1cccc(CN2CCN(c3cccc4[nH]ccc34)CC2)c1 ?
miR-21 reporter: inactive; G9a block: 32µM; Sfp inh: inactive

Results for O=Cc1ccc(OC2C=CC(c3ccccc3)OC2CO)cc1 (stereo not drawn) ?
ALDH1A1 block: inconclusive; Sfp inh: inactive

What do the screens show for `Cc1ccc(C)c(NC(=O)NNS(=O)(=O)c2ccc(C)c(C)c2)c1`?
miR-21 reporter: inactive; G9a block: inactive; Sfp inh: inactive

What do the screens show for `CCC(C)c1ccccc1N1CC(C(=O)N(C)CC(=O)Nc2cccc(F)c2)CC1=O` (stereo not drawn)?
G9a block: inactive[0.501 µM]

How did O=C(c1ccc([N+](=O)[O-])cc1)N1CCN(c2cccc3[nH]ccc23)CC1 do in these assays?
JMJD2E inh: inactive; miR-21 reporter: inactive; G9a block: 50µM; Sfp inh: inactive

Results for COc1ccc2c(c1)CCc1sc(NC(=O)c3cccc(Br)c3)nc1-2 ?
LMNA splice mod: inconclusive; miR-21 reporter: inactive; G9a block: 10µM

How did COc1ccc2c(c1)Cc1sc(NC(=O)c3cccc(C)c3)nc1-2 do in these assays?
miR-21 reporter: inactive; G9a block: inconclusive

What do the screens show for `COc1ccc2c(c1)-c1nc(NC(=O)c3ccc(C)cc3)sc1CC2`?
miR-21 reporter: inactive; G9a block: inactive

What do the screens show for `COc1ccc(C(=O)Nc2nc3c(s2)CCc2cc(OC)ccc2-3)cc1`?
miR-21 reporter: inconclusive; G9a block: 6.3µM

Results for CCC(Oc1ccc(F)cc1)C(=O)Nc1nc(-c2ccc(F)cc2)ns1 (stereo not drawn) ?
miR-21 reporter: inconclusive; G9a block: inactive

Results for CCCCCOc1ccc(C(=O)OCC(=O)Nc2cc(C)on2)cc1 ?
G9a block: inactive

Screens (PubChem)
